# Legend:
# By UniProt entry, the sequences of proteins in these tests, tags left out.
# UniProt P35372, whole entry: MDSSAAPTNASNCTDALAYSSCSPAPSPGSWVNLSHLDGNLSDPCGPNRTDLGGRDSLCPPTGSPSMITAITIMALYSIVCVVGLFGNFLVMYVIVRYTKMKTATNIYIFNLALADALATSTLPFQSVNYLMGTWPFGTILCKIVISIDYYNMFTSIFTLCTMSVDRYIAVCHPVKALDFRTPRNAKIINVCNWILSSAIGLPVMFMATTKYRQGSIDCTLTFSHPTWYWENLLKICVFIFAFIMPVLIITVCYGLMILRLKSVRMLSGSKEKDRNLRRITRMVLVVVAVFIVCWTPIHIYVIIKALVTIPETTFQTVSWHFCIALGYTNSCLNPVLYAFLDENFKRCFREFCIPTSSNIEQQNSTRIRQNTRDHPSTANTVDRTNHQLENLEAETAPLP
# UniProt P41145, whole entry: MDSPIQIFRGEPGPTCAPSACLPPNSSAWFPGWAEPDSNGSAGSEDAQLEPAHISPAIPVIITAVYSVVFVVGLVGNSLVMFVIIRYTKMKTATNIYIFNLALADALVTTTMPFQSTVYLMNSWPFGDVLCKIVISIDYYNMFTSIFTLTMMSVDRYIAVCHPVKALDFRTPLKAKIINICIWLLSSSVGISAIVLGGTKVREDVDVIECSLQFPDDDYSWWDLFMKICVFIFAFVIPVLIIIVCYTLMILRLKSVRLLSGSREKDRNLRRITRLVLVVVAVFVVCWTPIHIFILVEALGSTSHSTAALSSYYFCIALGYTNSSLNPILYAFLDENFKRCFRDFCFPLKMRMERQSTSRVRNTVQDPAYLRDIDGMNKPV
# [1] = molecular target: human mu opioid receptor (hMOR) (Homo sapiens, UniProt P35372); test: Mu radioligand binding assay ([3H]diprenorphine, CHO cell membranes); details: read-out: hMOR binding assay Ki; Table 19; geometric mean of 2-6 determinations unless otherwise indicated (Example 3: >=7)
# [2] = molecular target: human kappa opioid receptor (hKOR) (Homo sapiens, UniProt P41145); test: Kappa radioligand binding assay ([3H]diprenorphine, CHO cell membranes); details: read-out: hKOR binding assay Ki; Table 19; geometric mean of 2-6 determinations unless otherwise indicated (Example 3: >=7)
# Method: Kappa and Mu Radioligand Binding Assay:
# Binding assays on membranes from CHO cells expressing human kappa or mu opioid receptors were performed according to standard procedures. Frozen cell paste was homogenized in 50 mM Tris HCl buffer (pH 7.4 @ 4 degrees C.) containing 2.0 mM MgCl2 using a Polytron and spun in a centrifuge at 40,000 g for ten minutes. The final pellet was resuspended in assay buffer (50 mM Tris HCl buffer, pH 7.4, containing 1 mM EDTA, 5 mM MgCl2). Incubations were initiated by the addition of membranes to 96-well plates containing test drugs and [^3H]diprenorphine (0.6 nM final concentration for kappa opioid receptor and 0.5 nM final concentration for mu) in a final volume of 250 μl. Non-specific binding was determined by radioligand binding in the presence of a saturating concentration of naltrexone (10 μM). […] Membrane bound [^3H]diprenorphine levels were determined by liquid scintillation counting of the filterplates in Ecolume scintillation fluid. […] Ki values were calculated according to the Cheng Prusoff equation, Ki=IC50/(1+(L/Kd)), where L is the concentration of the radioligand used in the experiment and the Kd value is the dissociation constant for the radioligand (determined previously by saturation analysis).
structure (smiles),measurement,setting,value
"Cc1nn(C)cc1C1CCCN1Cc1ccc(Oc2ccc(C(N)=O)cc2F)cc1 (single isomer, unassigned) [Example 5, 4-(4-{[2-(1,3-Dimethyl-1H-pyrazol-4-yl)pyrrolidin-1-yl]methyl}phenoxy)-3-fluorobenzamide]",Ki,[1],40.7 nM
same,Ki,[2],1.06 nM
